# Yeast mating assay B: variants of the scFv Ab-14

Data: MIT Lincoln Laboratory AlphaSeq set, Li et al. 2023, doi:10.1038/s41467-023-39022-2, as distributed in FLAb.

The target is the same throughout: PDVDLGDISGINAS, from the HR2 region of SARS-CoV-2 spike.

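The starting antibody came from a phage panning campaign against this peptide. The variants were designed computationally from a first round of random CDR variants and then made and measured. Group labels follow the data file (Ctrl: baseline library sampled from a position-specific scoring matrix, with some repeated check sequences; GP: Gaussian process model; HC: hill climbing; Gen: genetic algorithm; Gibbs: Gibbs sampling; a sequence that several methods proposed may carry one label only). AlphaSeq pools MATa yeast showing the antibodies with MATalpha yeast showing the peptide. After mating in shaken culture at 30 °C for 16 h, diploids were selected and their barcode pairs sequenced. Each replicate has its own calibration line, from reference interactions of the BCL2 family. Each pool was mated in six replicate cultures.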

Each scFv is VH, three GGGGS repeats, VL, as in the parent Ab-14, and differs from it in the CDRs of the light chain only.
VH: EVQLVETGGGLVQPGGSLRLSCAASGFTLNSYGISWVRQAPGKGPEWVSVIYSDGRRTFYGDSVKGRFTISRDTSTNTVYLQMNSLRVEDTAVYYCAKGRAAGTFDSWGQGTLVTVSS
VL: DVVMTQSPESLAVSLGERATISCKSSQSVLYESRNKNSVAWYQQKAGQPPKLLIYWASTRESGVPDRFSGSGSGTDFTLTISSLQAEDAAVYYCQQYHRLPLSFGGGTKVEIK

Sequences are complete VL domains. Variants here have at most six changes. Kd is apparent (estimated from mating counts) and averaged on the log scale over replicates with a signal. Smaller is tighter. An entry "no signal" has no value in the source: the pair was not observed among the diploids in any replicate. This suggests poor binding but is not conclusive. In the paper, a design with two or fewer of six values counts as a poor binder. Nonspecific signal, from three strains lacking the peptide, appeared in 4% of pairings of all light chain designs, centred on 430 nM (5% of these signals below 38 nM); values are not corrected for it. The range of this assay differs from that of the first round, and the authors advise against merging the two.

| VL | group | Kd | replicates with signal |
|---|---|---|---|
| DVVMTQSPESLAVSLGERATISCKSSVSVLYESRNKNSIAWYQQKAGQPPKLLIYNASTRESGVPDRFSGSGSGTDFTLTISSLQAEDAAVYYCQQYHRLPLSFGGGTKVEIK | Ctrl | 58 nM | 1/6 |
| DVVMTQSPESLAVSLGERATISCKLQQSQLYESRNKNSVAWYQQKAGQPPKLLIYNASTRLDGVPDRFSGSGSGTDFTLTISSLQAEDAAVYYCQQYHRLPLSFGGGTKVEIK | GP_Gen | 4.1 nM | 6/6 |
| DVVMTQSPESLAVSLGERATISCKLSQSVLFEPRNKNSVAWYQQKAGQPPKLLIYDASTRESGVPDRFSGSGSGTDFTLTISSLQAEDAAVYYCQQYHRLPLSFGGGTKVEIK | GP_HC | 230 pM | 6/6 |
| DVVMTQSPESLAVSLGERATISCKSSYSVLYESRNKNSVAWYQQKAGQPPKLLIYGASHRESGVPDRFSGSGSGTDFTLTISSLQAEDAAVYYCQNYHRLPLSFGGGTKVEIK | Ctrl | 130 nM | 5/6 |
| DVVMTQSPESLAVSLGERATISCKSSQSVLYETRNKNSVAWYQQKAGQPPKLLIYWASTRESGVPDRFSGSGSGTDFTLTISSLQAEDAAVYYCQQYYRLPLSFGGGTKVEIK | Ctrl | 1.1 µM | 3/6 |
| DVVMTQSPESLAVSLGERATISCKMSQSVMYESRNKNSVAWYQQKAGQPPKLLIYWADTREDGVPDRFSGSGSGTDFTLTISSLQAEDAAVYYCQQYHRLPLSFGGGTKVEIK | Ctrl | 5.6 nM | 6/6 |
| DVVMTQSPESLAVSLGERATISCKSSQSVLYEDKNVNSVAWYQQKAGQPPKLLIYHASQRMSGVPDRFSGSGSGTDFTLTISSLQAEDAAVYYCQQYHRLPLSFGGGTKVEIK | GP_Gibbs | 14 nM | 6/6 |
| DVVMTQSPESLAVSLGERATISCKSSQSVIYEMRNKNSVAWYQQKAGQPPKLLIYDGSTRESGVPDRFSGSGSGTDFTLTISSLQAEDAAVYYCYQYHRLPLSFGGGTKVEIK | Ctrl | 13 nM | 6/6 |
| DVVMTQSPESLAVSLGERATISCKISQSVLYESRLKNSVAWYQQKAGQPPKLLIYWASTRESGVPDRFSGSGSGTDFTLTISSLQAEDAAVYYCQQQHRLPLSFGGGTKVEIK | Ctrl | 120 nM | 3/6 |
| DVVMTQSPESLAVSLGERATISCKMSQFVLYESRNKNSVAWYQQKAGQPPKLLIYSASTRESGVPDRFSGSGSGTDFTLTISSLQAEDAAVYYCQQYHRLPLSFGGGTKVEIK | Ctrl | 7.7 nM | 6/6 |
| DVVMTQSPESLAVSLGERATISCKLSQSMLYESRNKNSVAWYQQKAGQPPKLLIYEASDRLSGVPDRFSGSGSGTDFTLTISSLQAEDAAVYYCQDYHRLPLSFGGGTKVEIK | GP_Gibbs | 3.0 nM | 6/6 |
| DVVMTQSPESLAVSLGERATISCHFSQSVLYESRNKNSVAWYQQKAGQPPKLLIYNGSTRESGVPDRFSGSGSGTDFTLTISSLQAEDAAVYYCQQYHRLPLSFGGGTKVEIK | GP_HC | 520 pM | 6/6 |
| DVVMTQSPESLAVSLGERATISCKLSQSVPYESRNKNSVAWYQQKAGQPPKLLIYNASTREVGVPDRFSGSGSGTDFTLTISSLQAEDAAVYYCQQYHRLPLSFGGGTKVEIK | GP_Gen | 600 pM | 6/6 |
| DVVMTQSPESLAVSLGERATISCKVSQSELYESRNKNSVAWYQQKAGQPPKLLIYNASTRMSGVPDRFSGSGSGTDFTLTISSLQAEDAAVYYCQQYHRLPLSFGGGTKVEIK | GP_Gen | 1.9 nM | 6/6 |
| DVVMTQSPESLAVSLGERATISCKLSQPVLYESRNKNSVAWYQQKAGQPPKLLIYWASTRESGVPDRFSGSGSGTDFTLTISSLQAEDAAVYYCQQYHRLPLSFGGGTKVEIK | Ctrl | 22 nM | 6/6 |
| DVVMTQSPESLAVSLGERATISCKSSQSGLYESRNKNVVAWYQQKAGQPPKLLIYGASTRENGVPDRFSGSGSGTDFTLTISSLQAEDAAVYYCQQYHRLPLSFGGGTKVEIK | Ctrl | 24 nM | 6/6 |
| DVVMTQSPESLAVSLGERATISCKLEQGVLYESRNKNSVAWYQQKAGQPPKLLIYNASTRESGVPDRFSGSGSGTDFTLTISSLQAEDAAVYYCQQYHRLPLSFGGGTKVEIK | GP_HC | 640 pM | 6/6 |
| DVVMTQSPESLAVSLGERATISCKFSQWVLYESRAKNSVAWYQQKAGQPPKLLIYNASTRESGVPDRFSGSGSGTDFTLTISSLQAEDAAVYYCQQYHRLPLSFGGGTKVEIK | GP_HC | 7.3 nM | 6/6 |
| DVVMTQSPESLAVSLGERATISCKSAYSEPYESRNKNSVAWYQQKAGQPPKLLIYDASTRSSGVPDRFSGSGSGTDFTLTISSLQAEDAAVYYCQQYHRLPLSFGGGTKVEIK | GP_Gibbs | 2.3 nM | 6/6 |
| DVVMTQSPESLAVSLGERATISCKTSFSVMYESRRKNSVAWYQQKAGQPPKLLIYWASTREDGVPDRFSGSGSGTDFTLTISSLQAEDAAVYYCQQYHRLPLSFGGGTKVEIK | Ctrl | no signal | 0/6 |
| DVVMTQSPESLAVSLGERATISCKISQSFLMESRNKNSVAWYQQKAGQPPKLLIYNASTRCWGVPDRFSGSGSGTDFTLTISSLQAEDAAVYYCQQYHRLPLSFGGGTKVEIK | GP_Gibbs | 7.2 nM | 6/6 |
| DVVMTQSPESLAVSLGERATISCKFSQSEDYESRNKWSVAWYQQKAGQPPKLLIYNASTRESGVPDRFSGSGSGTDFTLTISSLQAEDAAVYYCQQYHRLPLSFGGGTKVEIK | GP_Gibbs | 2.0 nM | 6/6 |
| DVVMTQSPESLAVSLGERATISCKVSQSVLYEQRNKNSVAWYQQKAGQPPKLLIYEASTRMSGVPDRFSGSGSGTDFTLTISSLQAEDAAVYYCQQYHRLPLSFGGGTKVEIK | GP_Gen | 790 pM | 6/6 |
| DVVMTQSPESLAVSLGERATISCKCAQWVDYESRNKNSVAWYQQKAGQPPKLLIYQASTREQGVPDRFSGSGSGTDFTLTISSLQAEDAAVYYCQQYHRLPLSFGGGTKVEIK | GP_Gibbs | 770 pM | 6/6 |
| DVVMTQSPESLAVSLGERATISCKFMQSVLYESRNKNSVAWYQQKAGQPPKLLIYNASTRESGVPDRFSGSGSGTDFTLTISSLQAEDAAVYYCQQYHRLPLSFGGGTKVEIK | GP_Gen | 1.7 nM | 6/6 |
| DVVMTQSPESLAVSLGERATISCKSSISFLYESRMKNSVAWYQQKAGQPPKLLIYEASTRESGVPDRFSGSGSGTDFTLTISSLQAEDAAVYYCQQYHRLPLSFGGGTKVEIK | GP_HC | 730 pM | 6/6 |

Excerpt, the first 3 entries:

VL	group	Kd	replicates with signal
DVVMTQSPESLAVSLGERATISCKSSVSVLYESRNKNSIAWYQQKAGQPPKLLIYNASTRESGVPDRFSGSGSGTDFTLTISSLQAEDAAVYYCQQYHRLPLSFGGGTKVEIK	Ctrl	58 nM	1/6
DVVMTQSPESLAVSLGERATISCKLQQSQLYESRNKNSVAWYQQKAGQPPKLLIYNASTRLDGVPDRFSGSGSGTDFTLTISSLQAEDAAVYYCQQYHRLPLSFGGGTKVEIK	GP_Gen	4.1 nM	6/6
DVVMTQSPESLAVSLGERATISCKLSQSVLFEPRNKNSVAWYQQKAGQPPKLLIYDASTRESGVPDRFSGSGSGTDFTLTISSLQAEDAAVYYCQQYHRLPLSFGGGTKVEIK	GP_HC	230 pM	6/6